Assay results reported in ChEMBL document CHEMBL1151554, “Non thiazolidinedione antihyperglycaemic agents. 1: -Heteroatom substituted -phenylpropanoic acids” (Bioorg Med Chem Lett, 1996).

The chains behind the UniProt entries cited, without tags or fusion partners. Where a name states a change or a piece, a line headed by the entry shows the natural chain unless it says otherwise.
UniProt P37231: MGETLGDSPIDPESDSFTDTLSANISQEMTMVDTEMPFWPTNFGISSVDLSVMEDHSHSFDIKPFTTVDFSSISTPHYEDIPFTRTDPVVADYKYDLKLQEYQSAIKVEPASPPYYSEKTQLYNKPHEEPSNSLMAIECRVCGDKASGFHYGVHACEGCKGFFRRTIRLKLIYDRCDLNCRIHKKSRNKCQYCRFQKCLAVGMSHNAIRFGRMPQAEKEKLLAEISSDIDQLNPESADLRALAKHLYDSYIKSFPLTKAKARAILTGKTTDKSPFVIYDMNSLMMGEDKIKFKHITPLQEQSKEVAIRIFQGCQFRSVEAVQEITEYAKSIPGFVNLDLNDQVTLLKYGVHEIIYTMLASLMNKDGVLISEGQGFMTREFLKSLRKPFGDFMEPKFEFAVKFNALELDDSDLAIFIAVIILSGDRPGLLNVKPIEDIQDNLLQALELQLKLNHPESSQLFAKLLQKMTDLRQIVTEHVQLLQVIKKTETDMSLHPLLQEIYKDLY

Target: Peroxisome proliferator-activated receptor gamma (Homo sapiens, UniProt P37231)

SMILES	Ki [µM]
COC(=O)C(Cc1ccc(OCCN(C)c2nc3ccccc3o2)cc1)SC (centres undefined)	0.6
CN(CCOc1ccc(CC(Cl)C(=O)O)cc1)c1nc2ccccc2o1 (centres undefined)	0.033
COC(Cc1ccc(OCCN(C)c2nc3ccccc3o2)cc1)C(=O)O (centres undefined)	0.015
COC(=O)CCc1ccc(OCCN(C)c2nc3ccccc3o2)cc1	6
